Measurements as given in patent publication US20130183237A1 (priority 2007, published 2013).

Chains of the proteins cited; added tags and fusions are not shown. Residues count along the entry.
UniProt P00760, 24-246 limits assumed: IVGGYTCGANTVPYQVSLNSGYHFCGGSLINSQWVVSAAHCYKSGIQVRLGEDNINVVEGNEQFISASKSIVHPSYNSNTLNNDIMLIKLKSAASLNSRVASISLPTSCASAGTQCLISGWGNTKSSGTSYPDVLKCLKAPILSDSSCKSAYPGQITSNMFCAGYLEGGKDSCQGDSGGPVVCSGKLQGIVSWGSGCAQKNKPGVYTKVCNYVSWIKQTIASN

Molecular target: trypsin (Bos taurus, UniProt P00760)
Assay: Serine protease specificity: trypsin / S2222
Details: 100 μM of s-variegin

`CC[C@H](C)[C@H](NC(=O)[C@H](C)NC(=O)[C@H](CCC(=O)O)NC(=O)[C@H](Cc1ccccc1)NC(=O)[C@H](CC(=O)O)NC(=O)[C@H](Cc1ccccc1)NC(=O)[C@@H]1CCCN1C(=O)[C@@H]1CCCN1C(=O)[C@H](C)NC(=O)[C@@H](NC(=O)[C@H](CCCCN)NC(=O)[C@H](Cc1c[nH]cn1)NC(=O)[C@H](CCSC)NC(=O)[C@H](CCCCN)NC(=O)[C@@H]1CCCN1C(=O)[C@H](CCC(=O)O)NC(=O)[C@H](C)NC(=O)[C@@H](NC(=O)[C@H](CC(=O)O)NC(=O)CNC(=O)[C@H](CCC(N)=O)NC(=O)[C@H](CC(=O)O)NC(=O)[C@@H](N)CO)C(C)C)[C@@H](C)O)C(=O)N1CCC[C@H]1C(=O)N[C@@H](CCC(=O)O)C(=O)N[C@@H](CCC(=O)O)C(=O)N[C@@H](Cc1ccc(O)cc1)C(=O)N[C@@H](CC(C)C)C(=O)N[C@@H](CC(=O)O)C(=O)N[C@@H](CC(=O)O)C(=O)N[C@@H](CCC(=O)O)C(=O)N[C@@H](CO)C(=O)O` showed an inhibition of trypsin of 20 to 30%.
